Reference: patent US7399460B2, “Metal complexes derivatized with folate for use in diagnostic and therapeutic applications” (Bracco International B.V., priority 1998, dated 2008)

System: tumor
Conditions: radioimaging, folate-deprived tumor-bearing mice

99m-Technetium complex of 12-(N-Pteroyl-α-L-glutamyl)-3,3,9,9-tetramethyl-5-oxa-4,8-diaza-2,10-dodecanedione dioxime [^99mTc-Oxa-α-folate]
localization in tumor and kidneys: good localization | uptake by liver: negligible
